Experimental findings from US20210395313A1, “PEPTIDE PAC1 ANTAGONISTS” (AMGEN INC., priority 2017, published 2021) are described below.

This experiment deals with T1, rat PAC1 receptor (Rattus norvegicus, UniProt P32215).
T1 construct: SHSY-5Y (human neuroblastoma cell line) and RG-2 (rat glioma cell line) cells endogenously express human and rat PAC1 receptors, respectively; endogenous in cells; host or cells: RG-2 rat glioma cells
T1 sequence (P32215 20-523): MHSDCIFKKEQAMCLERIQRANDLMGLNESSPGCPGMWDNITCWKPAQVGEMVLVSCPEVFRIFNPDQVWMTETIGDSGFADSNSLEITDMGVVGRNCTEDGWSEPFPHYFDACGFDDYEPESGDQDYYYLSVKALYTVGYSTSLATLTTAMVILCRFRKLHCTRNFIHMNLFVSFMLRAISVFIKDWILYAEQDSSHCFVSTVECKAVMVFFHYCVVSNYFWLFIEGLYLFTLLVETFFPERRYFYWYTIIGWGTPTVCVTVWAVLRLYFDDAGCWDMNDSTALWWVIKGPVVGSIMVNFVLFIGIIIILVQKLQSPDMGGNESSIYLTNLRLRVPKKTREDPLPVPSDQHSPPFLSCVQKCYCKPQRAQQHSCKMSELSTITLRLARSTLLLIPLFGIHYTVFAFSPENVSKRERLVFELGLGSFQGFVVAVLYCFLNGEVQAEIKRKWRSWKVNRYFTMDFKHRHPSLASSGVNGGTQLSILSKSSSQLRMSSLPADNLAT
Put plainly: LANCE Ultra cAMP accumulation antagonist assay in RG-2 cells.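 Also: RG-2 rat glioma cells endogenously expressing PAC1, test peptide preincubated 30 min, then PAC1 agonist added at its EC80 for 15 min, cAMP accumulation read by LANCE Ultra.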 Type of experiment: cell-based.

The molecule `CC[C@H](C)[C@H](NC(=O)[C@H](C)NC(=O)[C@H](CCCCN)NC(=O)[C@H](CCCNC(=N)N)NC(=O)[C@H](Cc1ccccc1)NC(=O)[C@H](CCC(N)=O)NC(=O)[C@@H]1CSSC[C@H](N)C(=O)N[C@@H](CC(=O)O)C(=O)N[C@@H](C)C(=O)N[C@@H]([C@@H](C)O)C(=O)N1)C(=O)N[C@@H](CC(=O)O)C(=O)N[C@@H](CC(=O)O)C(=O)N[C@H]1CSSC[C@@H](C(=O)N[C@@H](CCSC)C(=O)N[C@@H](CCCCN)C(=O)N[C@@H](CCC(N)=O)C(=O)N[C@@H](CCCCN)C(=O)N[C@@H](CCCCN)C(=O)N[C@@H](CCCCN)C(=O)N[C@@H](CCC(=O)O)C(=O)N[C@@H](Cc2ccccc2)C(=O)N[C@@H](CCCCN)C(=O)N[C@@H](C)C(=O)NCC(N)=O)NC(=O)C(C)(C)NC(=O)[C@H](CCCCN)NC(=O)[C@H](Cc2ccccc2)NC(=O)[C@H](C(C)C)NC(=O)[C@H](CO)NC(=O)[C@H](CC(N)=O)NC(=O)CNC(=O)[C@H](C(C)C)NC(=O)[C@H](CC(N)=O)NC(=O)[C@H](CO)NC(=O)[C@H](Cc2c[nH]cn2)NC(=O)[C@H](Cc2c[nH]cn2)NC(=O)[C@H](C)NC(=O)[C@H](CCC(N)=O)NC(=O)[C@H](CCCCN)NC(=O)[C@H](CCC(N)=O)NC1=O` [compound 194] gave an IC50 of 0.01 to 1 nM. The value for `CC[C@H](C)[C@H](NC(=O)[C@H](C)NC(=O)[C@H](CCCCN)NC(=O)[C@H](CCCNC(=N)N)NC(=O)[C@H](Cc1ccccc1)NC(=O)[C@H](CCC(N)=O)NC(=O)[C@@H]1CSSC[C@H](N)C(=O)N[C@@H](CC(=O)O)C(=O)N[C@@H](C)C(=O)N[C@@H]([C@@H](C)O)C(=O)N1)C(=O)N[C@@H](CCC(=O)O)C(=O)N[C@@H](CC(=O)O)C(=O)N[C@H]1CSSC[C@@H](C(=O)N[C@@H](CCSC)C(=O)N[C@@H](CCCCN)C(=O)N[C@@H](CCC(N)=O)C(=O)N[C@@H](CCCCN)C(=O)N[C@@H](CCCCN)C(=O)N[C@@H](CCCCN)C(=O)N[C@@H](CCC(=O)O)C(=O)N[C@@H](Cc2ccccc2)C(=O)N[C@@H](CCCCN)C(=O)N[C@@H](C)C(=O)NCC(N)=O)NC(=O)C(C)(C)NC(=O)[C@H](CCCCN)NC(=O)[C@H](Cc2ccccc2)NC(=O)[C@H](C(C)C)NC(=O)[C@H](CO)NC(=O)CNC(=O)[C@@H]2CCCN2C(=O)[C@H](C(C)C)NC(=O)[C@H](CC(N)=O)NC(=O)[C@H](CO)NC(=O)[C@H](Cc2c[nH]cn2)NC(=O)[C@H](Cc2c[nH]cn2)NC(=O)[C@H](C)NC(=O)[C@H](CCC(N)=O)NC(=O)[C@H](CCCCN)NC(=O)[C@H](CCC(N)=O)NC1=O` [compound 203] was 0.01 to 1 nM; that for `CC[C@H](C)[C@H](NC(=O)[C@H](C)NC(=O)[C@H](CCCCN)NC(=O)[C@H](CCCNC(=N)N)NC(=O)[C@H](Cc1ccccc1)NC(=O)[C@H](CCC(N)=O)NC(=O)[C@@H]1CSSC[C@H](N)C(=O)N[C@@H](CC(=O)O)C(=O)N[C@@H](C)C(=O)N[C@@H]([C@@H](C)O)C(=O)N1)C(=O)N[C@@H](CC(=O)O)C(=O)N[C@@H](CC(=O)O)C(=O)N[C@H]1CSSC[C@@H](C(=O)N[C@@H](CCSC)C(=O)N[C@@H](CCCCN)C(=O)N[C@@H](CCC(N)=O)C(=O)N[C@@H](CCCCN)C(=O)N[C@@H](CCCCN)C(=O)N[C@@H](CCCCN)C(=O)N[C@@H](CCC(=O)O)C(=O)N[C@@H](Cc2ccc(I)cc2)C(=O)N[C@@H](CCCCN)C(=O)N[C@@H](C)C(=O)NCC(N)=O)NC(=O)C(C)(C)NC(=O)[C@H](CCCCN)NC(=O)[C@H](Cc2ccccc2)NC(=O)[C@H](C(C)C)NC(=O)[C@H](CO)NC(=O)CNC(=O)[C@@H]2CCCN2C(=O)[C@H](C(C)C)NC(=O)[C@H](CC(N)=O)NC(=O)[C@H](CO)NC(=O)[C@H](Cc2c[nH]cn2)NC(=O)[C@H](Cc2c[nH]cn2)NC(=O)[C@H](C)NC(=O)[C@H](CCC(N)=O)NC(=O)[C@H](CCCCN)NC(=O)[C@H](CCC(N)=O)NC1=O` [compound 187] was 0.01 to 1 nM.

`CC[C@H](C)[C@H](NC(=O)[C@H](C)NC(=O)[C@H](CCCCN)NC(=O)[C@H](CCCNC(=N)N)NC(=O)[C@H](Cc1ccccc1)NC(=O)[C@H](CCC(N)=O)NC(=O)[C@@H]1CSSC[C@H](N)C(=O)N[C@@H](CC(=O)O)C(=O)N[C@@H](C)C(=O)N[C@@H]([C@@H](C)O)C(=O)N1)C(=O)N[C@@H](CC(=O)O)C(=O)N[C@@H](CC(=O)O)C(=O)N[C@H]1CSSC[C@@H](C(=O)N[C@@H](CCSC)C(=O)N[C@@H](CCCCN)C(=O)N[C@@H](CCC(N)=O)C(=O)N[C@@H](CCCCN)C(=O)N[C@@H](CCCCN)C(=O)N[C@@H](CCCCN)C(=O)N[C@@H](CCC(=O)O)C(=O)N[C@@H](Cc2ccccc2)C(=O)N[C@@H](CCCCN)C(=O)N[C@@H](C)C(=O)NCC(N)=O)NC(=O)C(C)(C)NC(=O)[C@H](CCCCN)NC(=O)[C@H](Cc2ccccc2)NC(=O)[C@H](CO)NC(=O)CNC(=O)[C@@H]2CCCN2C(=O)[C@H](C(C)C)NC(=O)[C@H](CC(N)=O)NC(=O)[C@H](CO)NC(=O)[C@H](Cc2c[nH]cn2)NC(=O)[C@H](Cc2ccc(O)cc2)NC(=O)[C@H](C)NC(=O)[C@H](CCC(N)=O)NC(=O)[C@H](CCCCN)NC(=O)[C@H](CC(=O)O)NC1=O` [compound 201] showed an IC50 of 0.01 to 1 nM.

`CC[C@H](C)[C@H](NC(=O)[C@H](C)NC(=O)[C@H](CCCCN)NC(=O)[C@H](CCCNC(=N)N)NC(=O)[C@H](Cc1ccccc1)NC(=O)[C@H](CCC(N)=O)NC(=O)[C@@H]1CSSC[C@H](N)C(=O)N[C@@H](CC(=O)O)C(=O)N[C@@H](C)C(=O)N[C@@H]([C@@H](C)O)C(=O)N1)C(=O)N[C@@H](CC(=O)O)C(=O)N[C@@H](CC(=O)O)C(=O)N[C@H]1CSSC[C@@H](C(=O)N[C@@H](CCSC)C(=O)N[C@@H](CCCCN)C(=O)N[C@@H](CCC(N)=O)C(=O)N[C@@H](CCCCN)C(=O)N[C@@H](CCCCN)C(=O)N[C@@H](CCCCN)C(=O)N[C@@H](CCC(=O)O)C(=O)N[C@@H](Cc2ccccc2)C(=O)N[C@@H](CCCCN)C(=O)N[C@@H](C)C(=O)NCC(N)=O)NC(=O)C(C)(C)NC(=O)[C@H](CCCCN)NC(=O)[C@H](Cc2ccccc2)NC(=O)[C@H](C(C)C)NC(=O)[C@H](CO)NC(=O)[C@H](C(C)C)NC(=O)[C@H](CO)NC(=O)[C@H]([C@@H](C)O)NC(=O)[C@H](CCC(N)=O)NC(=O)[C@H](CC(C)C)NC(=O)CNC(=O)[C@@H]2CCCN2C(=O)[C@H](C(C)C)NC(=O)[C@H](CC(N)=O)NC(=O)[C@H](CO)NC(=O)[C@H](Cc2c[nH]cn2)NC(=O)[C@H](Cc2c[nH]cn2)NC(=O)[C@H](C)NC(=O)[C@H](CCC(N)=O)NC(=O)[C@H](CCCCN)NC(=O)[C@H](CCC(N)=O)NC1=O` [compound 197] had an IC50 of 0.01 to 1 nM. The value for `CC[C@H](C)[C@H](NC(=O)[C@H](C)NC(=O)[C@H](CCCCN)NC(=O)[C@H](CCCNC(=N)N)NC(=O)[C@H](Cc1ccccc1)NC(=O)[C@H](CCC(N)=O)NC(=O)[C@@H]1CSSC[C@H](N)C(=O)N[C@@H](CC(=O)O)C(=O)N[C@@H](C)C(=O)N[C@@H]([C@@H](C)O)C(=O)N1)C(=O)N[C@@H](CC(=O)O)C(=O)N[C@@H](CC(=O)O)C(=O)N[C@H]1CSSC[C@@H](C(=O)N[C@@H](CCSC)C(=O)N[C@@H](CCCCN)C(=O)N[C@@H](CCC(N)=O)C(=O)N[C@@H](CCCCN)C(=O)N[C@@H](CCCCN)C(=O)N[C@@H](CCCCN)C(=O)N[C@@H](CCC(=O)O)C(=O)N[C@@H](Cc2ccccc2)C(=O)N[C@@H](CCCCN)C(=O)N[C@@H](C)C(=O)N[C@@H](CC(N)=O)C(=O)O)NC(=O)C(C)(C)NC(=O)[C@H](CCCCN)NC(=O)[C@H](Cc2ccccc2)NC(=O)[C@H](C(C)C)NC(=O)[C@H](CO)NC(=O)CNC(=O)[C@@H]2CCCN2C(=O)[C@H](C(C)C)NC(=O)[C@H](CC(N)=O)NC(=O)[C@H](CO)NC(=O)[C@H](Cc2c[nH]cn2)NC(=O)[C@H](Cc2c[nH]cn2)NC(=O)[C@H](C)NC(=O)[C@H](CCC(N)=O)NC(=O)[C@H](CCCCN)NC(=O)[C@H](CCC(N)=O)NC1=O` [compound 206] was 0.01 to 1 nM; that for `CC[C@H](C)[C@H](NC(=O)[C@H](C)NC(=O)[C@H](CCCCN)NC(=O)[C@H](CCCNC(=N)N)NC(=O)[C@H](Cc1ccccc1)NC(=O)[C@H](CCC(N)=O)NC(=O)[C@@H]1CSSC[C@H](N)C(=O)N[C@@H](CC(=O)O)C(=O)N[C@@H](C)C(=O)N[C@@H]([C@@H](C)O)C(=O)N1)C(=O)N[C@@H](CC(=O)O)C(=O)N[C@@H](CC(=O)O)C(=O)N[C@H]1CSSC[C@@H](C(=O)N[C@@H](CCSC)C(=O)N[C@@H](CCCCN)C(=O)N[C@@H](CCC(N)=O)C(=O)N[C@@H](CCCCN)C(=O)N[C@@H](CCCCN)C(=O)N[C@@H](CCCCN)C(=O)N[C@@H](CCC(=O)O)C(=O)N[C@@H](Cc2ccccc2)C(=O)N[C@@H](CCCCN)C(=O)N[C@@H](C)C(=O)NCC(N)=O)NC(=O)C(C)(C)NC(=O)[C@H](CCCCN)NC(=O)[C@H](Cc2ccccc2)NC(=O)[C@H](C(C)C)NC(=O)[C@H](CO)NC(=O)[C@H](CC(N)=O)NC(=O)[C@@H]2CCCN2C(=O)[C@H](C(C)C)NC(=O)[C@H](CC(N)=O)NC(=O)[C@H](CO)NC(=O)[C@H](Cc2c[nH]cn2)NC(=O)[C@H](Cc2c[nH]cn2)NC(=O)[C@H](C)NC(=O)[C@H](CCC(N)=O)NC(=O)[C@H](CCCCN)NC(=O)[C@H](CCC(N)=O)NC1=O` [compound 193] was 0.01 to 1 nM.
